Measurements: PMC8141872 (The Journal of Biological Chemistry, 2021)

Sequences of proteins named here, by UniProt entry; tags and fusion partners are left off.
UniProt Q13418, whole entry, chain 1 of 3: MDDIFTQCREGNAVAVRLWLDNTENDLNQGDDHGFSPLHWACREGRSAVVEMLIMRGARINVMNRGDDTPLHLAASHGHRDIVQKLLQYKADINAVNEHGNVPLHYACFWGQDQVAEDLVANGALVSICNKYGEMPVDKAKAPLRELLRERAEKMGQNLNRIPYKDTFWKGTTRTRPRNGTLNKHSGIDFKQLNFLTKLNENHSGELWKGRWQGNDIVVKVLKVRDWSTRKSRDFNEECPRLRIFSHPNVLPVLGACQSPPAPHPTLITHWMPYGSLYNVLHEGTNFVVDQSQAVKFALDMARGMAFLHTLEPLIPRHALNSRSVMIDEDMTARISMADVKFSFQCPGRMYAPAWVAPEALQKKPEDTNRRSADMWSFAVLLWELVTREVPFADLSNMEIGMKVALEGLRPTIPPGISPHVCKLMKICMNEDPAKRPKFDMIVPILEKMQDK
IPP heterotrimer complex (ILK, PINCH-1, α-parvin), UniProt Q9NVD7, whole entry, chain 2 of 3: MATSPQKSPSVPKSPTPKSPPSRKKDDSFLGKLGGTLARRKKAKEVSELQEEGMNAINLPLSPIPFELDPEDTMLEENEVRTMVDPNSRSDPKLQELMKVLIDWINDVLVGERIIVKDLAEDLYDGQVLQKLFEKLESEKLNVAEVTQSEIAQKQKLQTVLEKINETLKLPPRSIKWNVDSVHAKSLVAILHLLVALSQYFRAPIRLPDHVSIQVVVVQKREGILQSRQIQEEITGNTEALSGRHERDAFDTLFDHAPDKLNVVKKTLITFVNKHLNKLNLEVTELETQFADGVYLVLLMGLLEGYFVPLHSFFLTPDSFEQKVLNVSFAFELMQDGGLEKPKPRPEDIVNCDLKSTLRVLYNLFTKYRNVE
IPP heterotrimer complex (ILK, PINCH-1, α-parvin), UniProt P48059, whole entry, chain 3 of 3: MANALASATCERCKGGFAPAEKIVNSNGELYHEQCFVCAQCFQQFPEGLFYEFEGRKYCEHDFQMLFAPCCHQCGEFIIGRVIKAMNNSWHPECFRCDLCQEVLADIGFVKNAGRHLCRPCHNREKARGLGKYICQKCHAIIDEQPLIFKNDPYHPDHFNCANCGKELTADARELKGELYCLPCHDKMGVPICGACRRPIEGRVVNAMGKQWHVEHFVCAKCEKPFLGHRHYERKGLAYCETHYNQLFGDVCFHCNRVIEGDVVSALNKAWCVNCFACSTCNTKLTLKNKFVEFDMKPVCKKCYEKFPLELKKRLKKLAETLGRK

Molecular target: T1, IPP heterotrimer complex (ILK, PINCH-1, α-parvin) (human, UniProt Q13418 1-452; Q9NVD7 1-372; P48059 1-325)
T1 construct: human integrin-linked kinase (ILK), residues 1-452; human α-parvin, residues 1-372; human PINCH-1, residues 1-325; The complex is called hexahistidine-tagged; also called IPP complex; ILK-PINCH-Parvin; copies: + +
Test: SEC; Superose 6 10/300 GL; purified IPP heterotrimer mixed with purified Kindlin-2 and Rsu-1, 4 °C at least 2 h; 20 mM Tris pH 7.5, 150 mM NaCl, 5% glycerol, 0.2 mM TCEP; peak reloaded on the same column
Details: both partners purified

Binder | binding result
Kindlin-2 (residues 1-680) (natural protein, human, UniProt Q96AC1 1-680, looked up, human kindlin-2, residues 1-680; source: SUMO-tag cleaved by Ulp1) MALDGIRMPDGCYADGTWELSVHVTDLNRDVTLRVTGEVHIGGVMLKLVEKLDVKKDWSDHALWWEKKRTWLLKTHWTLDKYGIQADAKLQFTPQHKLLRLQLPNMKYVKVKVNFSDRVFKAVSDICKTFNIRHPEELSLLKKPRDPTKKKKKKLDDQSEDEALELEGPLITPGSGSIYSSPGLYSKTMTPTYDAHDGSPLSPTSAWFGDSALSEGNPGILAVSQPITSPEILAKMFKPQALLDKAKINQGWLDSSRSLMEQDVKENEALLLRFKYYSFFDLNPKYDAIRINQLYEQAKWAILLEEIECTEEEMMMFAALQYHINKLSIMTSENHLNNSDKEVDEVDAALSDLEITLEGGKTSTILGDITSIPELADYIKVFKPKKLTLKGYKQYWCTFKDTSISCYKSKEESSGTPAHQMNLRGCEVTPDVNISGQKFNIKLLIPVAEGMNEIWLRCDNEKQYAHWMAACRLASKGKTMADSSYNLEVQNILSFLKMQHLNPDPQLIPEQITTDITPECLVSPRYLKKYKNKQITARILEAHQNVAQMSLIEAKMRFIQAWQSLPEFGITHFIARFQGGKKEELIGIAYNRLIRMDASTGDAIKTWRFSNMKQWNVNWEIKMVTVEFADEVRLSFICTEVDCKVVHEFIGGYIFLSTRAKDQNESLDEEMFYKLTSGWV | binds
Ras suppressor-1 (Rsu-1), wild type, full length (natural protein, human, UniProt Q15404 1-277, looked up, after thrombin cleavage a few of its residues probably remain (surmised); also called Rsu-1 (WT); Rsu-1 WT; not shown: His6, N-terminal, cleaved) MSKSLKKLVEESREKNQPEVDMSDRGISNMLDVNGLFTLSHITQLVLSHNKLTMVPPNIAELKNLEVLNFFNNQIEELPTQISSLQKLKHLNLGMNRLNTLPRGFGSLPALEVLDLTYNNLSENSLPGNFFYLTTLRALYLSDNDFEILPPDIGKLTKLQILSLRDNDLISLPKEIGELTQLKELHIQGNRLTVLPPELGNLDLTGQKQVFKAENNPWVTPIADQFQLGVSHVFEYIRSETYKYLYGRHMQANPEPPKKNNDKSKKISRKPLAAKNR | binds
